From patent US8431396B2, “Anti-angiogenic peptides” (The Cleveland Clinic Foundation, priority 2003, dated 2013)

Amino acid sequences for entries named in this document (tags omitted). Residues count along the entry.
UniProt P35968, 20-1356: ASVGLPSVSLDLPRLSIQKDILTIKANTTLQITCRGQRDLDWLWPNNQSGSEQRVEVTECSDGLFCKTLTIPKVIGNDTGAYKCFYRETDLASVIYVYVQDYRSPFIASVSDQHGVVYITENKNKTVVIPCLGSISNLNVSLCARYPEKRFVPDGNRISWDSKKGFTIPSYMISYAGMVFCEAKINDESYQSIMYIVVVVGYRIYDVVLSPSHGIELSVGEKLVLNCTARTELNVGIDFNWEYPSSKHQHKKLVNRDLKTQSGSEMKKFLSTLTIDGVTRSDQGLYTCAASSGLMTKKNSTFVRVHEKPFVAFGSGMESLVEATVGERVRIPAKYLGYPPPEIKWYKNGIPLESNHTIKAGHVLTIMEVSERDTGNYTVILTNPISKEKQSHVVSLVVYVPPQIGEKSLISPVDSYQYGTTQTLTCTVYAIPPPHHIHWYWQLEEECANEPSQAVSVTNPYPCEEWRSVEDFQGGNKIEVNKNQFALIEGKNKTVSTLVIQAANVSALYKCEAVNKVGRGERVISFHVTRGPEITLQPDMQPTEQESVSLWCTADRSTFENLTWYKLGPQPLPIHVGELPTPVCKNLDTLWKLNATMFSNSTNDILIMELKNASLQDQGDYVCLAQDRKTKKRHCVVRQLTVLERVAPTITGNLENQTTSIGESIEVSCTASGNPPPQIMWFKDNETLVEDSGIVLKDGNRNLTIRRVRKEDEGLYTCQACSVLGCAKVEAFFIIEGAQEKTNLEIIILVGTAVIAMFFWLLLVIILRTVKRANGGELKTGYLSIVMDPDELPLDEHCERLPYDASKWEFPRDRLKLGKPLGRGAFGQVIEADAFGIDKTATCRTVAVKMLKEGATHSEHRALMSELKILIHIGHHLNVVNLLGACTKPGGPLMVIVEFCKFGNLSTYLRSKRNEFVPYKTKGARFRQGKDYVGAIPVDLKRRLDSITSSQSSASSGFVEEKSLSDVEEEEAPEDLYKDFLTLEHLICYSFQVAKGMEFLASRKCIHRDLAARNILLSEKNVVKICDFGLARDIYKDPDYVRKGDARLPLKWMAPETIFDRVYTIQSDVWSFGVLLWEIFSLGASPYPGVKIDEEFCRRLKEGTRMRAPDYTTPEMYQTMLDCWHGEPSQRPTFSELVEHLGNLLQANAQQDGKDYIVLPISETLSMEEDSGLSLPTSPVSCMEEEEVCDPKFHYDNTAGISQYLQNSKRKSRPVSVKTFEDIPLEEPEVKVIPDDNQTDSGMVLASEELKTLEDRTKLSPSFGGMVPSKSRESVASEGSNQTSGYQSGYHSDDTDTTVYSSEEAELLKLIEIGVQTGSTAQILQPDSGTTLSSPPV

What was measured:
KDR = molecular target: T1, KDR (Homo sapiens, UniProt P35968); assay: [125I]VEGF binding to the surface of PAE-KDR cells
T1 construct: To determine whether these receptor isoforms represent full-length VEGFR-2; expressed in transfected cells; host or cells: porcine aortic endothelial (PAE) cells
Description: Radioligand binding is expressed as percent binding and is the mean±s.e.m. of triplicate samples. […] All values are expressed as mean±s.e.m. of triplicate samples. […] Binding is expressed as mean±s.e.m.
Data were analyzed by Scatchard plot analyses.

VEGFR2 (KDR/Flk-1) = VEGFR2 (KDR/Flk-1) (Homo sapiens, UniProt P35968); details: read-out: Kd of VEGF binding to VEGFR2; cited from earlier work

For VEGF [reference compound], the “IC50 for competition with labeled VEGF for binding to PAE-KDR cells” value (KDR) is listed as 8.5 to 15 ng/mL and the Kd (VEGFR2 (KDR/Flk-1)) is listed as 0.4 to 0.8 nM.
